This is a sample that favours compounds with a hit; in the whole collection about 4.2% have one here.
MC4R ag barr = activates human MC4R beta-arrestin recruitment; P32245; U2OS MC4R beta-arrestin complementation, luminescence; percent of melanotan II response, DMSO zero; activation, % at 8.9 µM; actives 0.98% (n = 360,000);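 active means activation above a per-plate cutoff, the mean activation of sample wells on that plate plus 3 SD, cut at about 8% in these data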
Yeast UUG start = yeast start codon fidelity modulation; AID 602363; activity score, % at 18.7 µM; S. cerevisiae UUG-firefly luciferase reporter, luminescence/redox ratio; 0.13% of 350,000 active;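 active means replicate mean at a twofold rise or more, about +100% in these data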;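 further: firefly luciferase made from a UUG start codon reports start codon fidelity; reporter light over untreated wells divided by growth signal over untreated wells; some hits fall short of that in this replicate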
ALR inh = blocks human ALR sulfhydryl oxidase activity | inhibition, % (no concentration beside the values) | 3.8% of 290,000 active | purified ALR, DTT oxidation, H2O2 HRP-luminol luminescence | AID 485317 | P55789;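 active = mean and each replicate at 75% or more; inconclusive = only one of the two met; inactive = neither met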;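 also: stock transfer was 7.5 nL into about 7.5 µL; 0% = neutral wells and 100% = wells with inactivated enzyme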
MC4R antagonist = antagonists of human melanocortin 4 receptor (MC4R); P32245; MC4R-expressing cells, MTII-stimulated cAMP, LANCE TR-FRET; inhibition, % at 6.5 µM; actives 0.48% (n = 360,000);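 active means inhibition above its plate's cutoff, the mean of tested wells on that plate plus 3 SD, cut at about 29% in these data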
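system = U2OS cells with stable human MC4R expression | also added = Melanotan II challenge after compound preincubation | dosing = one concentration, 6.5 µM nominal | incubation = compound 30 min, challenge 1 h, detection 1 h | measured by = TR-FRET with Eu-cAMP and labeled anti-cAMP, 671 nm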
HDAC3 inhib = inhibitors of human histone deacetylase 3. inhibition, % at 8.3 µM. actives 0.15% (n = 320,000). recombinant HDAC3, fluorogenic peptide/trypsin coupled, fluorescence. AID 2718; in the data active means inhibition above about 26%, passing the limit was not always enough
NALP1 inh = blocks the NALP1 inflammasome reconstituted in yeast; S. cerevisiae NALP1/ASC/caspase-1 growth, X-gal OD620, 72 h; inhibition, % at 10 µM; actives 0.61% (n = 280,000); AID 2071; in the data active means inhibition mostly above about 24%, no sharp cut-off; inactive means mostly below about 32%
Of the large screens only hits and unclear results are named; the others gave an inactive call.

COC(CNC(=O)c1cccc2c1C(=O)N(Cc1cccnc1)C2)OC	NALP1 inh 41
Cc1noc(C)c1S(=O)(=O)Nc1ccc2c(c1)CC(=O)N([C@@H](C)CO)C[C@@H](C)[C@H](CN(C)CC1CC1)O2	none (no result: MC4R ag barr, ALR inh, MC4R antagonist, HDAC3 inhib, NALP1 inh)
Cc1cc(C)c(C)c(S(=O)(=O)N2C(=S)NC(=O)C2C(C)C)c1C (stereo unspecified)	ALR inh 96
CC(C)NC(=O)N(C)C[C@H]1Oc2ccc(NC(=O)NC3CCCCC3)cc2CC(=O)N([C@H](C)CO)C[C@@H]1C	none (no result: MC4R ag barr, ALR inh, MC4R antagonist, HDAC3 inhib, NALP1 inh)
CC(C)/C=C(/C(=O)c1ccc(Cl)cc1Cl)n1cncn1	ALR inh 97 (no result: Yeast UUG start)
Cc1nc(N=Nc2ccc(O)cc2)n[nH]1	ALR inh 94 (no result: Yeast UUG start, NALP1 inh)
Cc1cccc(-c2nnc(SCC(=O)NC3CC3)n2C)c1	NALP1 inh 28
CC(C(=O)Nc1ccc(O)cc1C(=O)O)N1C(=O)/C(=C\c2cccs2)SC1=S (stereo unspecified)	ALR inh 87
O=C(CCCN1C(=O)/C(=C\c2ccccc2)SC1=S)Nc1ccc(O)cc1C(=O)O	none
CN(C)NC(=S)NC(=O)C12CC3CC(CC(C3)C1)C2	ALR inh 92
Oc1ccc(C23CC4CC(CC(C4)C2)C3)cc1O	ALR inh 99
CC(=O)Nc1ccc(C23CC4CC(CC(C4)C2)C3)cc1	none
Cc1noc(C)c1NC(=O)N(C)C[C@H]1Oc2ccc(NC(=O)Nc3ccc4c(c3)OCO4)cc2CC(=O)N([C@H](C)CO)C[C@H]1C	none (no result: MC4R ag barr, ALR inh, MC4R antagonist, HDAC3 inhib, NALP1 inh)
O=C1OCC(CO)(CO)N=C1NNc1ccccc1Cl	ALR inh 99
COc1ccc(C(=O)OCC(=O)Nc2ccc(Cl)cn2)cc1	MC4R ag barr 8.8
COc1ccc(Br)cc1C(=O)Nc1ccc(O)cc1	ALR inh 99
COc1ccc(Br)cc1C(=O)Nc1ccc(C(=O)O)cc1	none
CCCNC(=O)N[C@H]1CC[C@@H](CCNS(=O)(=O)c2cccc(F)c2)O[C@@H]1CO	none (no result: MC4R ag barr, ALR inh, MC4R antagonist, HDAC3 inhib, NALP1 inh)
CC(=O)c1cc(CC=C(C)C)c(O)cc1O	ALR inh 83
Cc1cc2c(cc1C)CSC(c1ccc(O)cc1)SC2	MC4R ag barr 8.6 (no result: ALR inh)
NNC(=O)c1ccccc1OCc1ccccc1	none
NNC(=O)c1ccccc1CO	ALR inh 79 (no result: MC4R ag barr, Yeast UUG start, MC4R antagonist, NALP1 inh)
C[C@@H]1CCCCO[C@@H](CN(C)C(=O)Nc2cccc3ccccc23)[C@H](C)CN([C@H](C)CO)C(=O)c2cc(NC(=O)CCC(F)(F)F)ccc2O1	none (no result: MC4R ag barr, ALR inh, MC4R antagonist, HDAC3 inhib, NALP1 inh)
CC=Cc1ccc2n(c1=O)C[C@@H]1[C@@H](CO)[C@H](C(=O)N(C)C)N(CC3CC3)[C@H]21 (mixture of isomers)	none (no result: MC4R ag barr, ALR inh, MC4R antagonist, HDAC3 inhib, NALP1 inh)
O=c1c2cc(Br)ccc2[nH]c(=S)n1Cc1ccccn1	ALR inh 93 (no result: Yeast UUG start)
O=c1c2cc(Br)ccc2[nH]c(=S)n1Cc1ccccc1	none (no result: ALR inh)
O=C(CCCn1c(=S)[nH]c2ccc(Br)cc2c1=O)NCc1ccccn1	none
O=C(CCCn1c(=S)[nH]c2ccc(Br)cc2c1=O)N1CCN(c2ccccn2)CC1	ALR inh 92
CN1C=CC=C/C1=C1/SC(=S)N(Cc2ccccc2)C1=O	ALR inh 99 (no result: Yeast UUG start)
CCN1C(=O)/C(=C2/C=CC=CN2C)SC1=S	ALR inh 99
COc1ccc(N2C(=O)/C(=C3/C=CC=CN3C)SC2=S)cc1	none (no result: Yeast UUG start)
CCN1/C(=C/c2ccc3cccc(C)c3[n+]2CC)Sc2ccccc21	NALP1 inh 34
OC(c1ccccc1)c1nc(-c2cccc(C(F)(F)F)c2)cs1 (stereo unspecified)	MC4R ag barr 9.5 (no result: ALR inh, HDAC3 inhib, NALP1 inh)
C[C@H](CO)N1C[C@H](C)[C@@H](CN(C)Cc2ccc(C(F)(F)F)cc2)Oc2c(NS(C)(=O)=O)cccc2C1=O	none (no result: MC4R ag barr, ALR inh, MC4R antagonist, HDAC3 inhib, NALP1 inh)
C[C@@H]1CN([C@@H](C)CO)C(=O)c2cc(NC(=O)CCN3CCOCC3)ccc2O[C@H]1CN(C)S(=O)(=O)c1ccccc1	none (no result: MC4R ag barr, ALR inh, MC4R antagonist, HDAC3 inhib, NALP1 inh)
Cc1cc(C)cc(Nc2nc3c([nH]2)c(=O)n(C)c(=O)n3C)c1	NALP1 inh 32
Cc1ccc(Nc2nc3c([nH]2)c(=O)n(C)c(=O)n3C)cc1	none
Cc1ccc(NC(=O)CSc2nncs2)cc1Cl	ALR inh 99 (no result: NALP1 inh)
COc1cc(Cl)c(C)cc1NC(=O)CSCC#N	none
CCOC(=O)c1cc(NC(=O)COC)ccc1O	none (no result: MC4R ag barr, Yeast UUG start, MC4R antagonist)
CCOC(=O)c1cc(NC(=O)CSCCO)ccc1Cl	ALR inh 99
Cc1ccc(NC(=O)CSCC#N)cc1Cl	ALR inh 99 (no result: Yeast UUG start)

From PubChem BioAssay
